Test results from PMC9031908 (RSC Advances, 2021).

Tested on: rats
Conditions: oral, 0.02 to 0.2 mg kg^−1

## Cc1nc2n(c(=O)c1CCN1CCC(c3noc4cc(F)ccc34)CC1)CCCC2 [Risperidone, risperidone]
  difference in exploration times for novel and familiar objects, retention trial: no significant difference
